Consider 1 compound from patent US20200071326A1, “TAM KINASE INHIBITORS” (Syros Pharmaceuticals, Inc., priority 2017, published 2020).

Protein sequences, listed by entry. Tags and fused reporters are not part of them. Residues count along the entry.
UniProt P36888, 27-993 limits assumed: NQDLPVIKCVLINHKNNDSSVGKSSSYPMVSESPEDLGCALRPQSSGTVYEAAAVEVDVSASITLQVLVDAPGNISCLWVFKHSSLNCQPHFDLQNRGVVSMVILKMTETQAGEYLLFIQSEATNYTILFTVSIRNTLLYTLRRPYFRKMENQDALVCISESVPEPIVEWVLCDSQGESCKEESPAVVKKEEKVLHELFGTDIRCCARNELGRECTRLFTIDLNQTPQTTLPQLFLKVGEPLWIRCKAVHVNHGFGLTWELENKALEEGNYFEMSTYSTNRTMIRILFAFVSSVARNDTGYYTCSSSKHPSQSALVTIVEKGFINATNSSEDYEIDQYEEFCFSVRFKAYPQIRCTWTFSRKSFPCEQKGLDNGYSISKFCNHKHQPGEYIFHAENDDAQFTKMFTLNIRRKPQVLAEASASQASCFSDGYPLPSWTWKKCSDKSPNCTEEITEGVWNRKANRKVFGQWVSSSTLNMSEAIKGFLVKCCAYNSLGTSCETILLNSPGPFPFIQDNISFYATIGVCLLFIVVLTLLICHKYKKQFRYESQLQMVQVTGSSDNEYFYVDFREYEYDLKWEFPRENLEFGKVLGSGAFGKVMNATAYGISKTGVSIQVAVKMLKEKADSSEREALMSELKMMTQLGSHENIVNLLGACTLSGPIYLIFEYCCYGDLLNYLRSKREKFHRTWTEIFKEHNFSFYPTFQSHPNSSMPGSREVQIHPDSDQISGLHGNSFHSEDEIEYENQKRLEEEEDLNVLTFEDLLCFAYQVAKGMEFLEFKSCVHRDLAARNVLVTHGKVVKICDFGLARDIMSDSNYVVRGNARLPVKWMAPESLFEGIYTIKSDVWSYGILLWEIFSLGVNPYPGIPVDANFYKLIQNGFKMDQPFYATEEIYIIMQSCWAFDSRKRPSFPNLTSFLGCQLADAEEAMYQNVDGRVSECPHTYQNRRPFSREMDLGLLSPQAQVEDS
UniProt Q06418, 41-890 limits assumed: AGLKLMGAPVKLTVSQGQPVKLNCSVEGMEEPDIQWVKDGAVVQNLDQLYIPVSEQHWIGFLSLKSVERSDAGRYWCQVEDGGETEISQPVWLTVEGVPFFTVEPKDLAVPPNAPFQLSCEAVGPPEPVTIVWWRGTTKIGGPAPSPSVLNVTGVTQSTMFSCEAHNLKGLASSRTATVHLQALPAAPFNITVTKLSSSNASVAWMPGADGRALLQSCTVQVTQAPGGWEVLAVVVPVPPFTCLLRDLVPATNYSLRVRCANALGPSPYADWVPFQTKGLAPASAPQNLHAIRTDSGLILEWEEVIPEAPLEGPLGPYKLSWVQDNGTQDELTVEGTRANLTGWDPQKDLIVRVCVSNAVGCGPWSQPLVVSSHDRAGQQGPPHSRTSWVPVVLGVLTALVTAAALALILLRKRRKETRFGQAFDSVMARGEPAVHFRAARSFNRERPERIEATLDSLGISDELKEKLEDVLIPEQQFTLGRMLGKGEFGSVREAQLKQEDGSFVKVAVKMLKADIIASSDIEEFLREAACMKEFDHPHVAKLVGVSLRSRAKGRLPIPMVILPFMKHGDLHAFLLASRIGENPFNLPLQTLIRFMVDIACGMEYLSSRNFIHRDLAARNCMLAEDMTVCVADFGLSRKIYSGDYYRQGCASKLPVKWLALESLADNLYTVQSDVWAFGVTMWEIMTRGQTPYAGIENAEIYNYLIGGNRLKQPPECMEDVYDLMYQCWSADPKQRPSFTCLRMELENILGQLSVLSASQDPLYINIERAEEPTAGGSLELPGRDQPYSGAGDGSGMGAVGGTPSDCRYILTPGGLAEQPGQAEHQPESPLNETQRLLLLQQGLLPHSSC
UniProt Q12866, 21-999 limits assumed: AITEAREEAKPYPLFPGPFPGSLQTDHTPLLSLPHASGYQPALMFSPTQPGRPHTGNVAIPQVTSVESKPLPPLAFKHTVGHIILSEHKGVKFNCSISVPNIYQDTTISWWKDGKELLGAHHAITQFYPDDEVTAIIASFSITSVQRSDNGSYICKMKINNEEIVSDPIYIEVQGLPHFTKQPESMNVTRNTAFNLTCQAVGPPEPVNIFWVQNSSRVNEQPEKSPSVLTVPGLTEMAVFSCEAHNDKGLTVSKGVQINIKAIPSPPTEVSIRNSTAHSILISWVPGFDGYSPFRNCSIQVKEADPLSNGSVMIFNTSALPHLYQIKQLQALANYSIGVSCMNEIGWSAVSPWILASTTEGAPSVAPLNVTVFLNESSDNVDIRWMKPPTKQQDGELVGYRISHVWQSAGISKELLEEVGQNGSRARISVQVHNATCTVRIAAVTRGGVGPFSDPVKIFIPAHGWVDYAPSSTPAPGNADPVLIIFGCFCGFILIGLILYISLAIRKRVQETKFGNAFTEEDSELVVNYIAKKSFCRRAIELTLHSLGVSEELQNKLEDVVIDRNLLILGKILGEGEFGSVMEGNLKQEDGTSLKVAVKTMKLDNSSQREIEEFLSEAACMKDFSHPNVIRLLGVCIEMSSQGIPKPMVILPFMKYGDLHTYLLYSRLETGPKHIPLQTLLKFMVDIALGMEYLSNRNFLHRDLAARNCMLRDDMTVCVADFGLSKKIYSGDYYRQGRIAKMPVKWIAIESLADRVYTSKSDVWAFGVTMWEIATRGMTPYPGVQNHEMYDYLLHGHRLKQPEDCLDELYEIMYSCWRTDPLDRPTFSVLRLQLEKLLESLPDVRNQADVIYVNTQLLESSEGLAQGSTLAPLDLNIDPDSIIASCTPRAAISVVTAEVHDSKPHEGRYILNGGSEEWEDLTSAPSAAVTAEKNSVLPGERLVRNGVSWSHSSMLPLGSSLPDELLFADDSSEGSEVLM
UniProt P30530, 26-894 limits assumed: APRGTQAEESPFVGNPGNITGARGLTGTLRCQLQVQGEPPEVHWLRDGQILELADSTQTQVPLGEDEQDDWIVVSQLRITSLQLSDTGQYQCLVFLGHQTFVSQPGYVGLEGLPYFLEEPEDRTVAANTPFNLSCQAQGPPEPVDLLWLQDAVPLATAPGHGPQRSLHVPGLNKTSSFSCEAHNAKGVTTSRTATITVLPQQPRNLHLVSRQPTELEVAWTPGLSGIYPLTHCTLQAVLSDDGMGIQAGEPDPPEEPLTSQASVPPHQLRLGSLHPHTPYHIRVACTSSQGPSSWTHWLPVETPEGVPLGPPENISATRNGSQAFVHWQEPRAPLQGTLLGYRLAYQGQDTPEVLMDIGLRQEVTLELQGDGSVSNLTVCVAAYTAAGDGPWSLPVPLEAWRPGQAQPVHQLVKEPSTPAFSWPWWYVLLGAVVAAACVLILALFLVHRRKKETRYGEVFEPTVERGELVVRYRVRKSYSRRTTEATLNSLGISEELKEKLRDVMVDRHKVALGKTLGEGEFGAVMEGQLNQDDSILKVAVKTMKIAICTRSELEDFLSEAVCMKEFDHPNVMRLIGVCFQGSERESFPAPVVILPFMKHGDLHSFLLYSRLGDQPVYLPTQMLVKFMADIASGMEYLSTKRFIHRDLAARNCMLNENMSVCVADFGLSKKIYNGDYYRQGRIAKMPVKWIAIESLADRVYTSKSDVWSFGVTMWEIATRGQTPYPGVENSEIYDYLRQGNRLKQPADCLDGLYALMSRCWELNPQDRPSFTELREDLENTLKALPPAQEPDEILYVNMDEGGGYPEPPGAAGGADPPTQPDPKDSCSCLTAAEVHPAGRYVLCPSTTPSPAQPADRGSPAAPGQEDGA

Some results are limits rather than exact numbers.

The target in experiment [1] is FLT3 (Homo sapiens, UniProt P36888). In words: IMAP fluorescence polarization kinase assay, FLT3. To be noted: read-out: FLT3 inhibitory constant (Ki), ATP 2.74 μM, enzyme 2.5 nM, 240 minutes. The method, then:
(§1) Activities of compounds against each of TYRO3, AXL, and MERTK as well as against FLT3, were determined using an immobilized metal ion affinity-based fluorescence polarization (“IMAP”) assay. A fluorescently-labeled substrate peptide was phosphorylated in the kinase reaction, after which a binding solution containing large trivalent metal-based nanoparticles was added and the phosphorylated substrate binds to these beads. This reduces the rotational speed of the substrate which is then detected using fluorescence polarization as a read-out.
(§2) The substrates used for each enzyme are as follows: AXL: 5F1-KKKKEEIYFFFG-NH2(SEQ ID NO:1); FLT3: 5F1-KKKKEEIYFFF-NH2 (SEQ ID NO:2); MERTK: 5F1-EFPIYDFLPAKKK-NH2 (SEQ ID NO:3); and TYRO3: 5F1-EFPIYDFLPAKKK-NH2 (SEQ ID NO:4).
(§3) This assay was performed in a 384-well, polystyrene microplate in a final volume of 8 μl. […] IMAP binding solution was then dispensed, the plate incubated for 60 minutes at room temperature and the fluorescence polarization measured. Data were analyzed using XLfit.

Experiment [2] addresses TYRO3 (Homo sapiens, UniProt Q06418). In words: IMAP fluorescence polarization kinase assay, TYRO3. To be noted: read-out: TYRO3 inhibitory constant (Ki), ATP 54.0 μM, enzyme 2.5 nM, 60 minutes. How it is done:
as §1, §2, §3
In general terms: In fluorescence polarisation assays a small probe gives low polarisation when free and higher when bound to something large.

Experiment [3] has as its target MERTK (Homo sapiens, UniProt Q12866). In words: IMAP fluorescence polarization kinase assay, MERTK. To be noted: read-out: MERTK inhibitory constant (Ki), ATP 2.69 μM, enzyme 1.5 nM, 240 minutes. How it is done: as §1, §2, §3
Experiment [4] has as its target AXL (Homo sapiens, UniProt P30530). In words: IMAP fluorescence polarization kinase assay, AXL. To be noted: read-out: AXL inhibitory constant (Ki), ATP 24.7 μM, enzyme 2.5 nM, 240 minutes. How it is done: as §1, §2, §3

In general, Ki refers to a measure of affinity in units of concentration, obtained from inhibition or displacement. In the case of `CC[C@@H](C)c1cc2c(N[C@H]3CC[C@H](N)CC3)c(C(=O)Nc3ccc(F)cc3)cnc2[nH]1`, the Ki in experiment [1] was 100 to 1000 nM; in experiment [2], below 100 nM; in experiment [3], below 100 nM; in experiment [4], 1000 to 10000 nM.
